Reference: patent US5013756A, “Catechol derivatives, a process of preparation thereof, and therapeutical compositions containing the same” (priority 1985, dated 1991)

The chains behind the UniProt entries cited, without tags or fusion partners. Residues count along the entry.
UniProt P23219, 24-599: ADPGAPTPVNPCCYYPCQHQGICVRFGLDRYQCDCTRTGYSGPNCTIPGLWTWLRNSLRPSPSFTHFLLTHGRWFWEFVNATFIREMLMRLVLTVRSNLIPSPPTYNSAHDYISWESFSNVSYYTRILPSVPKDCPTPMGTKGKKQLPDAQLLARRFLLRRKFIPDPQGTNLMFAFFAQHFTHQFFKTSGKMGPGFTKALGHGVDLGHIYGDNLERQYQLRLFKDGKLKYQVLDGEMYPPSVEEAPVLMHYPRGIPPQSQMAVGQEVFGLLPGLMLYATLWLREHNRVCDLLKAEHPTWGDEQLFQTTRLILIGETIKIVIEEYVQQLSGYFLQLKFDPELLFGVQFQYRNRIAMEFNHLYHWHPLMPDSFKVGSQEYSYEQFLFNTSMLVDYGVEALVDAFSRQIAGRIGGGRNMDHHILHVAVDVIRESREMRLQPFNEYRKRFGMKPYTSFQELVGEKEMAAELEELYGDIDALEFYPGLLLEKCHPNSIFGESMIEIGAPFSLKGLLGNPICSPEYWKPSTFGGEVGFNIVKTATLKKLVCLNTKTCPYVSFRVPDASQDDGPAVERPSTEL
UniProt P80457, whole entry: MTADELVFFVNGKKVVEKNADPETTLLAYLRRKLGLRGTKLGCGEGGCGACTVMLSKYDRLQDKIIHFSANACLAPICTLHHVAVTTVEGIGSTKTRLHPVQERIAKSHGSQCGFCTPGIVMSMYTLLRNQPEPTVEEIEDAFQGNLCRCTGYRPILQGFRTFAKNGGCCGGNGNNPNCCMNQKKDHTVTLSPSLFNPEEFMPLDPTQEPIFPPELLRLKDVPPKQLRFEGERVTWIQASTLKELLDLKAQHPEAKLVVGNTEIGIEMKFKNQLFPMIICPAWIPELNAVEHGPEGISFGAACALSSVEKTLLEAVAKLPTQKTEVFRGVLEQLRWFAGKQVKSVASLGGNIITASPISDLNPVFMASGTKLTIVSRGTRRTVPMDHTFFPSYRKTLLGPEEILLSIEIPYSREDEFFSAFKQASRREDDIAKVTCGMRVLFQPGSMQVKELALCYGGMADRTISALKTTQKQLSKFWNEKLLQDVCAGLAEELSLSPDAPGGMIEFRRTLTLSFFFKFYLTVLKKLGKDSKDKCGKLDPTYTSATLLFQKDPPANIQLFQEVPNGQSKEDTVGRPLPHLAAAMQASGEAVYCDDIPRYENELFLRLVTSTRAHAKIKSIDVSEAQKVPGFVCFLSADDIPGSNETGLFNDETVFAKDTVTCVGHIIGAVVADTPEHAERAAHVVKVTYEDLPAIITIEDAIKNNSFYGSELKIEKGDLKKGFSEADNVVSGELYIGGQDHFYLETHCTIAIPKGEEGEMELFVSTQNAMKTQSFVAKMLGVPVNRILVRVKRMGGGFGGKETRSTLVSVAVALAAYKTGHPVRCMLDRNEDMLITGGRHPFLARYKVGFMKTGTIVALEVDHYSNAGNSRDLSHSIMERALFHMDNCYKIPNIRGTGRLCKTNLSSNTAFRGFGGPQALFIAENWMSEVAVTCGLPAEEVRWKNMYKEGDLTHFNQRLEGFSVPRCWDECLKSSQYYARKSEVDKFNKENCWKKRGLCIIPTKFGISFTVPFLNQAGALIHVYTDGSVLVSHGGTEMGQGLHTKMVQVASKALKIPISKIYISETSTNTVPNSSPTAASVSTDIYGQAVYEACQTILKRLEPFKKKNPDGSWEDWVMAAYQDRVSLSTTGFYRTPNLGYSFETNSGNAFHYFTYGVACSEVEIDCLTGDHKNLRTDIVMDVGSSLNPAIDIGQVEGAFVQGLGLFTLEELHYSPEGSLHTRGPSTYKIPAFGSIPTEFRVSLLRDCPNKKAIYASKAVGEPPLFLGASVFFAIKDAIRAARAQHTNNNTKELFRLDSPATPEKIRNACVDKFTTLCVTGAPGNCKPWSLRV

Experiments:
[1] = target: T1, cyclooxygenase (human platelets microsomes) (Homo sapiens, UniProt P23219); assay: Cycloxygenase inhibition in human platelets microsomes; type: biochemical
T1 construct: human platelets microsomes; from tissue; host or cells: human platelet microsomes (microsomal powder)

xanthine oxidase = xanthine oxidase (Bos taurus, UniProt P80457); assay: In vitro screening of compounds as potential inhibitors of xanthine oxidase; type: biochemical; settings: xanthine oxidase 0.01 units/ml, xanthine 5.10^-5 M, pH 7.4

| IC50 (xanthine oxidase) [µM] | Structure (SMILES) | IC50 [1] [µM] |
| --- | --- | --- |
| – | CCCCC1C(=O)N(c2ccccc2)N(c2ccccc2)C1=O [Phenylbutazone, reference compound] | 274 |
| 7.89 | O=c1c(O)c(-c2ccc(O)cc2)oc2cc(O)cc(O)c12 [Campherol, reference compound] | – |
